Ab-91 heavy chain CDR variants: yeast mating affinities

From the AlphaSeq antibody data of Engelhart et al. 2022 (doi:10.1038/s41597-022-01779-4), copy in the FLAb collection.

Target peptide (SARS-CoV-2 spike, HR2 region): PDVDLGDISGINAS

Parent scFv Ab-91: VL joined to VH by a (GGGGS)3 linker. Changes lie in the heavy chain CDRs alone.
VL: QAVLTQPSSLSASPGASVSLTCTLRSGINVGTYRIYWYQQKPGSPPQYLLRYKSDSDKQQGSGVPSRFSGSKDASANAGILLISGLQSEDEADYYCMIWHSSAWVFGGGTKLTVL
VH: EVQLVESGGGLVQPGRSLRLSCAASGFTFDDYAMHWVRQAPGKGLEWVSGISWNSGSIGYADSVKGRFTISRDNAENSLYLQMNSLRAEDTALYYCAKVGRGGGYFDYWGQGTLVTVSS

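The starting antibody came from a phage panning campaign against this peptide. In library AAYL51, one, two or three CDR residues were substituted; doubles and triples were drawn at random. The assay is AlphaSeq: two haploid yeast populations carry antibody and antigen on their surface. Pairs that bind mate more often; barcode pairs of the diploids are counted by sequencing. Each replicate has its own calibration line, from reference interactions of the BCL2 family. The assay was run in three technical replicates.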

Positions count from residue 1 of the parent VH; F27N puts N in place of F. Every variant below is changed at G59 of the VH (sequential numbering). Values are apparent Kd, the geometric mean of the replicates that gave a signal; lower means stronger binding. "nd" means that the variant was in the library but no mating with the target was seen in any replicate; the authors take this as a sign of poor binding, and no number exists.

Variant F27N F29Y G59R showed 63 µM (1 of 3 replicates). With T28E G59Y the result was nd (0 of 3 replicates). For M34W S57F G59V, the assay gave nd (0 of 3 replicates). For I51K G59C F106I, the assay gave nd (0 of 3 replicates). Variant W53Q G59R Y105T gave 11 µM (2 of 3 replicates).

For G59A A61M Y105W, the assay gave 1.1 µM (3 of 3 replicates). For Y32L G59V V64N, the assay gave nd (0 of 3 replicates). For Y32V G59E K65C, the assay gave nd (0 of 3 replicates). Variant W53M G59V Y60S showed 2.7 µM (1 of 3 replicates). For A33P G59N R101F, the assay gave 81 µM (1 of 3 replicates).

For Y32F G59D R101P, the assay gave 26 µM (2 of 3 replicates). With H35R N54I G59S the result was nd (0 of 3 replicates). With W53H G59H V99H the result was 80 µM (3 of 3 replicates). With Y32K G59F G103M the result was 110 µM (1 of 3 replicates). Variant G59Y A61N Y108E showed 17 µM (2 of 3 replicates).

For G26H G59D D107A, the assay gave nd (0 of 3 replicates). Variant Y32G G59N gave nd (0 of 3 replicates). For G59H K65W G102C, the assay gave 74 µM (1 of 3 replicates). For F27V G59S D107L, the assay gave nd (0 of 3 replicates). With G26F G56C G59M the result was nd (0 of 3 replicates).

Variant S57V G59P G102P showed 190 µM (2 of 3 replicates). Variant D30K N54D G59H gave 95 µM (3 of 3 replicates). Variant S52C G59L V64P gave nd (0 of 3 replicates). Variant S52D G59P D107T gave nd (0 of 3 replicates). With M34D G59V F106N the result was nd (0 of 3 replicates).

With D31N S57L G59W the result was 12 µM (1 of 3 replicates). For G59W G103L Y108R, the assay gave 260 µM (1 of 3 replicates). Variant G26A F29W G59Y gave 210 µM (2 of 3 replicates). Variant G26M T28L G59V showed nd (0 of 3 replicates). Variant S55G G59W V64A gave 19 µM (2 of 3 replicates).

With G59Y D62K V64A the result was 38 µM (1 of 3 replicates). For G59F Y60P Y105R, the assay gave nd (0 of 3 replicates). With N54Q G59F G102I the result was 90 µM (2 of 3 replicates). Variant D30A H35T G59E showed 52 µM (3 of 3 replicates). Variant D31Y G59T gave nd (0 of 3 replicates).

Variant W53K S55D G59T gave 250 µM (2 of 3 replicates). Variant H35L G59T showed 220 µM (1 of 3 replicates). Variant F29T Y32C G59C gave 3.5 µM (1 of 3 replicates).

Picked from the list: the 3 lowest averages where every replicate gave a value.

G59A A61M Y105W: 1.1 µM (3 of 3 replicates).
D30A H35T G59E: 52 µM (3 of 3 replicates).
W53H G59H V99H: 80 µM (3 of 3 replicates).

Nonspecific signal, from three strains lacking the peptide, appeared in 21% of pairings of library AAYL51, centred on 34 µM (5% of these signals below 1.8 µM); values are not corrected for it. Parent in this assay: reference entry 72 nM, copy in this library 7.5 nM.